In brackets after ≈: the same amount, converted by molar mass.

Data set [1] can be described thus: Cell viability assay (ATP bioluminescence). Conditions: human.
Data set [2] has as its system human leukemic monocyte cell line (THP-1). Description: Cell viability assay (ATP bioluminescence). The conditions noted are these: ratio between CC50 (THP-1) and minimum EPI concentration able to reduce by 4-fold CPX MIC.

In general, CC50 refers to the concentration giving 50% cytotoxicity. Lower therefore signals greater toxicity to the cells. For the molecule `CCCOc1ccc(-c2cc(OCCN(CC)CC)c3ccccc3n2)cc1` [Compound 1, reference compound], in data set [1], the CC50 at 24 h turned out to be 10 µg/mL (≈ 26.4 µM). Also, the “SI, selectivity index” value in data set [2] stood at 1.6.
